# Curated experimental data: melting point values

Data: OPERA 2.9 data sets, kmansouri/OPERA on GitHub.

Melting points are in °C.

compound,melting point (°C)
CC(=O)OCCN(CCC#N)c1ccc(N=Nc2c(Cl)cc([N+](=O)[O-])cc2Cl)cc1,121.8
O=C1CCCCC1c1ccccc1 (stereo not drawn),57.5
c1ccc2c(c1)CC1COCOC21 (stereo not drawn),36.4
OCCC(F)(F)C(F)(F)C(F)(F)C(F)(F)C(F)(F)C(F)(F)C(F)(F)C(F)(F)C(F)(F)F,43
CC(C)(C)OC(=O)N1CCN(CCN)CC1,35
COc1ccc(-n2c(=S)[nH]c3sc4c(c3c2=O)CCCC4)cc1,313
COc1cc2nc(Cl)nc(N)c2cc1OC,276.2
CCOc1nc2cccc(C(=O)O)c2n1Cc1ccc(-c2ccccc2-c2nc(=O)o[nH]2)cc1,213
C#CCOCc1ccc(Cl)cc1,-13
CC(=O)Nc1ccc(S(=O)(=O)CCO)cc1,185
CC(C)(C)c1cc2c(c(C(C)(C)C)c1)OP(=O)(O)Oc1c(cc(C(C)(C)C)cc1C(C)(C)C)C2,326.5
CCCN(C)C,-61.58
O=C(O)c1cc(Cl)n[nH]c1=O,213
CCCOc1ccc(C#N)cc1OC,91
Clc1ccc(-c2nn[nH]n2)cc1Cl,160.5
Cc1cc(I)cnc1Br,44.5
CCOC(=O)c1cnoc1N,17
Cc1ccc(C)c(S(N)(=O)=O)c1,150
CC(CC(C)(C)C)C[Si](Cl)(Cl)Cl (stereo not drawn),-129
CC(O)COC(=O)O[C@@H]1C[C@H](C)CC[C@H]1C(C)C (stereo partly drawn),-21
Cc1c(C(=O)NN)oc2ccccc12,140
C[C@@H](NCCc1ccc(O)cc1)[C@@H](O)c1ccc(O)cc1,89
Cc1cc(NN)nc2c(C)cccc12,169
COc1ccc(CCC#N)cc1OC,47.7
CN(C)Cc1ccc(C(=O)O)cc1,240
N#Cc1cnoc1N,144
Nc1c(I)cc(I)cc1I,188
CC(=O)c1c(C)oc(N)c1C#N,242
C[Si](Cl)(Cl)CCC(F)(F)F,-67.65
Nn1c(-c2cccs2)n[nH]c1=S,218
NC(=O)C1CCN(C(=O)CCl)CC1,137
CC1(C)CC(=O)CC(C)(C#N)C1 (stereo not drawn),67.55
CC1(c2ccc(Br)cc2)NC(=O)NC1=O (stereo not drawn),263
CS(=O)(=O)c1ccc(Cl)c(S(=O)(=O)Cl)c1,142

Excerpt, the opening 2 entries:

compound	melting point (°C)
CC(=O)OCCN(CCC#N)c1ccc(N=Nc2c(Cl)cc([N+](=O)[O-])cc2Cl)cc1	121.8
O=C1CCCCC1c1ccccc1 (stereo not drawn)	57.5

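The OPERA project collected these measurements from public sources as training and test data for property models. One number stands for a compound and property, with no spread given. Conditions of the individual experiments are not part of the data. The measured form (salt, isomer or mixture) is not always the one drawn. Some upstream entries may be estimates or bounds without being marked so.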